This is an account of results in PubChem BioAssay AID624296 (National Center for Advancing Translational Sciences (NCATS), 2012).

The entries are a selection whose mix differs from that of the whole data set. Inconclusive results are not listed. The source made the active and inactive calls. The call rests on the fitted dose curve; in most records, active means well fitted activation curve with a large enough effect; inconclusive means small, poorly fitted or top-dose-only effect; inactive means no such curve, though single readings can be large or run the other way.

This assay in a line: A quantitative high throughput screen for small molecules that induce DNA re-replication in MCF 10a normal breast cells. Further: % of control where 0% means no effect; nearly all actives have a fitted effect of over 50% in size. The following applies: MCF 10A DNA re-replication, Hoechst nuclear intensity, 48 h; at 46.1 µM (top of the series).
Take `CCC(=O)N(c1ccccc1)C1(COC)CCN(CCn2nnn(CC)c2=O)CC1`: the activity, positive = re-replication is inactive: 6.66%. With `CCC(=O)N(c1ccccc1)C1(COC)CCN(CCc2cccs2)CC1`, the activity, positive = re-replication is inactive: -0.343%.

As for `CN(CCCl)CCCl`, the activity, positive = re-replication is inactive: 20.4%.
